# Biological target: β1AR-NlucC (CRISPR) (Homo sapiens, UniProt P08588)
# Chains of the proteins cited; added tags and fusions are not shown.
# UniProt P08588, whole entry: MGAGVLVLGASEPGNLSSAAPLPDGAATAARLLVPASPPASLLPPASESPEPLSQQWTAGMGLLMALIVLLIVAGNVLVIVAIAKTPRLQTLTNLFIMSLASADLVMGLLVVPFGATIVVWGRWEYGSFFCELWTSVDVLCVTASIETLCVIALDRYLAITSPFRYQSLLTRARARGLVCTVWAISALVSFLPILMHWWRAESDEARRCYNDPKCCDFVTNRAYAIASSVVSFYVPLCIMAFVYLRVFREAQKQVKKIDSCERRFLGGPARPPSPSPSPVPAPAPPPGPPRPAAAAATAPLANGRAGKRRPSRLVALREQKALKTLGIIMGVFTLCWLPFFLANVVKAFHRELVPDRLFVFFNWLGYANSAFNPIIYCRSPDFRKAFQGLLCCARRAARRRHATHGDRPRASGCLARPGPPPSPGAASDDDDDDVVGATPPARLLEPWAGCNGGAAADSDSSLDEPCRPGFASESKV
# Experiment: cell-based
compound,measurement,value
CNC[C@H](O)c1ccc(O)c(O)c1 [adrenaline],EC50,251 nM

# Source: article doi:10.1101/2024.06.03.597093v3 (biorxiv, 2024)
